Literature values, collected in patent EP0904128B1, “COMPOSITION AND SYSTEM FOR IONTOPHORETIC TRANSDERMAL DELIVERY OF DRUGS” (priority 1996, dated 1997).

Conditions: in vivo; cited from earlier work

In the case of `Nc1c2c(nc3ccccc13)CCCC2` [tacrine, 9-amino-1,2,3,4-tetrahydroacridine], the “Clearance CL” value is listed as 150 L/h.
